The test deals with A431 epidermoid carcinoma xenografts. Kind of test: Tumor growth inhibition, subcutaneous A431 xenografts. In kind it is in vivo, athymic nude mice. How it is done: Subcutaneous tumors of N87, LOVO, A431/Le^y, LS174T and L2987 were grown in athymic nude mice (Charles River, Wilmington, Mass.). Two-month-old female mice were injected with respectively 5×10^6 N87, LOVO, A431/Le^y or LS174T cells per mouse. L2987 cells were injected in male nude mice that were between 7 and 8 weeks old. To grow tumors, N87 cells had to be mixed (1:1, vol/vol) with […]® (Collaborative Biomedical Products, Belford, Mass.) prior to injection. Two perpendicular diameters of the tumor were measured by means of calipers at time intervals specified in the result section. The tumor volume was calculated according to the formula of Attia&Weiss: A^2×B×0.4. […]
Table 1 (CD33-expression on carcinoma cells in vitro) lists the cell lines used to generate xenografts in nude mice and their expression of CD33 as measured by flow cytometry. […]
As shown in Table 2 (tumor volume reduction of CD33-tumor xenografts following treatment (T) with hp67.6-AcBut-CalichDMH and expressed as a percentage of controls treated with vehicle (T/C %)), hp67.6-AcBut-CalichDMH inhibited tumor growth of human tumor xenografts with diverse histiotypic origin. […] This value is the average tumor volume of a group of mice that were treated with hp67.6-AcBut-CalichDMH (T) expressed as a percentage of the average tumor volume of a control group (C). […]

Experimental findings from patent US20070190060A1, “Passive targeting of cytotoxic agents” (Wyeth, priority 2004, published 2007) are described below.

As to “HSA-AcPAc-CalichDMH: human serum albumin conjugated to CalichDMH with the AcPAc linker”, the “efficacy on growth of A431 xenografts” value (AcPAc conjugates, intraperitoneally Q4D×3, same experiment (FIG. 4A, 4B)) was “marginal”. The T/C (commonly the ratio of treated to control) (another experiment (xenograft not named, A431 assumed), 20 days after administration of 4 μg/mouse Q4D×3) turned out to be 39%.
